We go through one substance from patent US10570080B2, “Perfume ketones” (Givaudan, S.A., priority 2015, dated 2020).

In series [1] the test system is KeratinoSens cells. The series can be described thus: KeratinoSens assay: cytotoxicity / cellular viability. Conditions: 48 h.
The subject of series [2] is Luciferase gene under the control of the ARE-element of the gene AKR1C2 (KeratinoSens cell line). The series is described as follows: KeratinoSens assay for skin sensitization: luciferase gene induction.

Regarding “(2E,1′R*,2′S*,6′S*)-2-Methyl-1-(1′,2′,6′-trimethylcyclohex-3′-en-1′-yl)but-2-en-1-one [Example 6]”, the “Concentration for 50% Cytotoxicity” value in series [1] was found to be 89.3 µM. Moreover, the “Concentration for 1.5-fold gene induction (EC 1.5 in μM)” value in series [2] (KeratinoSens, 48 h, n.i. = no induction above threshold of 1.5) came to 48.8 µM. Further, the “Imax (fold maximal gene induction)” value in series [2] (KeratinoSens, 48 h incubation, 0.98 to 2000 μM, vs DMSO controls) was 1.64 fold. Also, the marginal gene induction in series [2] (at 125 μM only) worked out at 1.67 fold.
